Binding of CDR-mutated scFvs to a peptide of the spike HR2 region

Data: MIT Lincoln Laboratory AlphaSeq set, Engelhart et al. 2022, doi:10.1038/s41597-022-01779-4, as distributed in FLAb.

All variants were tested on one target, the spike HR2 peptide PDVDLGDISGINAS (SARS-CoV-2).

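Phage display of a naive human antibody library on the peptide gave the parent. The library (AAYL51) carries one to three amino acid substitutions per variant, with no insertions or deletions. AlphaSeq pools MATa yeast showing the antibodies with MATalpha yeast showing the peptide. Pairs that bind mate more often; barcode pairs of the diploids are counted by sequencing. A regression on co-assayed BCL2-family reference pairs converts the normalised counts of each replicate to an apparent Kd. Each pool was mated in three replicate cultures.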

Ab-91 is the parent antibody, in scFv form: VL, then a (GGGGS)3 linker, then VH. The light chain is unchanged in all variants.
VL: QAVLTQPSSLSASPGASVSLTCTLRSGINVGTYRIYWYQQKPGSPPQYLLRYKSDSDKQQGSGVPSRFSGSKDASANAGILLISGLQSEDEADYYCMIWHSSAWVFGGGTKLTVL
VH: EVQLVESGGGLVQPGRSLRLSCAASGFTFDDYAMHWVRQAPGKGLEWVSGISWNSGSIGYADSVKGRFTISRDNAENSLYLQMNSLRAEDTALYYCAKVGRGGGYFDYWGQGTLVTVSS

Changes read parent residue, position, new residue, counted from the first residue of the VH shown.
Values are apparent Kd, the geometric mean of the replicates that gave a signal; lower means stronger binding.
An entry "not detected" has no value in the source: the pair was not observed among the diploids in any replicate. This suggests poor binding but is not conclusive.
Entries are sorted by rising average, undetected variants last.

changes	apparent Kd	detected
A61R/G102A/Y105D	3.5 nM	3/3
K65R/Y105F/F106L	12 nM	3/3
T28Q/N54G	22 nM	3/3
F27S/T28F/D31H	22 nM	3/3
G100A/G103R/Y108G	30 nM	3/3
D30E/V64F/G102Q	35 nM	3/3
D31H/I58W/Y60F	70 nM	3/3
D30E/W53A/V64K	71 nM	3/3
I58Q/G104W/F106Y	75 nM	3/3
S55T/G56V/F106M	190 nM	3/3
S63M/Y105N/D107Q	230 nM	3/3
F29K/S52V/G56T	1.2 µM	1/3
F27E/T28S/D62A	2.3 µM	1/3
G26M/T28R/G56H	2.7 µM	1/3
F27E/K65R/R101A	3.4 µM	1/3
I51V/S63K/G104T	3.6 µM	2/3
S57N/V64D/D107T	3.8 µM	1/3
T28P/S52M/Y108S	4.3 µM	3/3
F27E/A61L/G104N	4.4 µM	1/3
G26I/N54Y/V64T	6.7 µM	1/3
M34Y/I51M/F106L	21 µM	1/3
A33S/I51H/K65D	22 µM	1/3
I51D/W53K/G103F	23 µM	2/3
G26K/G50S/W53K	23 µM	1/3
S52Y/K65Q/R101A	25 µM	3/3
G26S/S63G/V99R	25 µM	2/3
M34E/S63H/G103F	25 µM	1/3
D30Y/S52Q/Y60S	29 µM	1/3
G59W/Y60E/K65Q	30 µM	1/3
T28N/G50I/Y60S	36 µM	1/3
K65Y/R101I/F106V	42 µM	2/3
G59Q/G103R/G104D	47 µM	2/3
I51Y/K65Y/V99S	64 µM	1/3
W53K/Y60I/A61D	64 µM	1/3
H35F/G59M/Y108S	71 µM	2/3
F29D/V64C/Y105H	83 µM	1/3
F27W/N54W/A61P	92 µM	1/3
D30R/D31T/G50R	140 µM	1/3
F27S/W53R/K65H	280 µM	2/3
F29K/Y60T	440 µM	1/3
G26F/D107R	1.0 mM	1/3
Y32E/G59H/Y108E	not detected	0/3
G50H/G56H/I58P	not detected	0/3
D30K/S55L/S57C	not detected	0/3
A61D/F106C/D107W	not detected	0/3
D31L/N54E/F106C	not detected	0/3
D31P/G59Y/D62N	not detected	0/3
G56A/S57C/V99R	not detected	0/3
D30I/S57V/G102T	not detected	0/3
H35P/R101K/Y105S	not detected	0/3
F29T/W53F/G59I	not detected	0/3
G26L/N54E/I58E	not detected	0/3
G50L/I58Y/Y105D	not detected	0/3

The 5 strongest on average among those seen in every replicate, once more:

| changes | apparent Kd | detected |
|---|---|---|
| A61R/G102A/Y105D | 3.5 nM | 3/3 |
| K65R/Y105F/F106L | 12 nM | 3/3 |
| T28Q/N54G | 22 nM | 3/3 |
| F27S/T28F/D31H | 22 nM | 3/3 |
| G100A/G103R/Y108G | 30 nM | 3/3 |

Background: pairings of library AAYL51 with three empty control strains gave a value in 21% of cases (median 34 µM, 5th percentile 1.8 µM). Values in that range, when seen in few replicates, are hard to tell from nonspecific mating.